The structures appear in SMILES notation. The list shows a part of the results, in another mix than the full data. Active and inactive are the calls of the source.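 The calls were made as follows: active = maximum activity change below -70%; inconclusive = maximum activity change from -70% to -50%; inactive = maximum activity change above -50%.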
% is scaled to controls: 0 for no effect and ±100 for the full control effect.

The assay relates to Potassium voltage-gated channel subfamily H member 2, brain isoform KCNH2 3.1 (human). As to the kind of experiment: qHTS for Inhibitors of KCHN2 3.1: Mutant qHTS. As to conditions: U2OS KCNH2 3.1, thallium flux FluxOr; hits give low values. From the text: Many antipsychotic drugs that inhibit the neurotransmitter dopamine also bind to hERG1 channel which might help explain their antipsychotic activity but also produces cardiac side effects. The discovery of the novel KCNH2 3.1 isoform offers a potential new target for the development of antipsychotic drugs without cardiac side effects. This proposal will use a high throughput thallium flux assay developed for KCNH2 to screen compounds that modulate the activity of KCNH2 3.1. The wild type KCNH2 channel will also be screened in parallel to help define the selective modulators of this KCNH2 3.1 potassium channel. The resulting compounds will be validated in electrophysiology experiments. The availability of animal models will allow future testing in vivo for effects on memory and other aspects of animal physiology linked with psychosis. NIH Chemical Genomics Center [NCGC] NIH Molecular Libraries Probe Centers Network [MLPCN] MLPCN Grant: MH096539 Assay Submitter (PI): James Barrow, Johns Hopkins University, Lieber Institute for Brain Development
U2OS cells were resuspended in cell media containing 10% fetal calf serum (FCS) at a concentration of 2 million cells / mL. The solution was treated with the mutant (3.1) virus at 1.77 x 10^8 / mL and allowed to incubate at room temperature in the dark. After 4 hours of incubation, DMEM + 10% fetal bovine serum (FBS) was added to the cell solution. Three microliter was then dispensed into a 1536 tissue culture treated black assay plates which were incubated overnight at 37 C. Two microliter of loading buffer (HBSS + HEPES + Red40 dye quencher + FluxOr dye) was added and the assay plates were incubated for 45 min at room temperature in the dark. Twenty-three nanoliter of test compounds and positive control Haloperidol (46 uM final concentration) were added to the assay plate followed by a kinetic read (180 sec) using the Hamamatsu FDSS reader. A stimulation buffer was added to the plate and the second kinetic read (2 min) was obtained. The rate constant was calculated from the kinetic reads and normalized to the positive and negative DMSO controls.
On the technique in general: In qHTS, concentration-response curves come from the screen itself.
For `CCNC(=O)N1CCN(CCCC(c2ccc(F)cc2)c2ccc(F)cc2)CC1`, the activity change is active: -118%. As for `CN1CCCC1CCOC(C)(c1ccccc1)c1ccc(Cl)cc1` (configuration not stated), the figure is active: -111%.

`O=C(CCCN1CCC(O)(c2ccc(Cl)cc2)CC1)c1ccc(F)cc1`: the activity change is active: -99.9%. Take `O=C(CCCN1CCC(O)(c2cccc(C(F)(F)F)c2)CC1)c1ccc(F)cc1`: the activity change is active: -111%. Under `CN1CCC[C@@H]1CCO[C@](C)(c1ccccc1)c1ccc(Cl)cc1` stands active: -96.4%. Under `CCOC(=O)C1=C[C@]2(CC)CCCN3CCc4c(n1c1ccccc41)[C@@H]32` stands active: -86.3%. Under `CC(C)COCC(CN(Cc1ccccc1)c1ccccc1)N1CCCC1` (configuration not stated) stands active: -103%.

These data come from PubChem BioAssay AID720553 (National Center for Advancing Translational Sciences (NCATS), 2013).
